Experiment: Solubility in water (shaken vials, UV-Vis analysis of carvedilol concentration)
Conditions: 25° C., 48 hr, expressed as mg of carvedilol free base/mL of solution
Procedure: Glass vials containing water and excess amount of carvedilol salts were shaken by a mechanical shaker at ambient conditions. Aliquots were taken out at various time-point, filtered through 0.45 μm Acrodisc GHP filter. The pH of the filtered solutions was measured and suitable dilution was performed prior to UV-Vis analysis of carvedilol concentration.

For “carvedilol monocitrate monohydrate [Carvedilol Mono-Citrate salt]”, the “Aqueous Solubility” value was 1020 µg/mL.
